The text below walks through data of PubChem BioAssay AID686996 (Broad Institute, 2013).

The chains behind the UniProt entries cited, without tags or fusion partners. Residues count along the entry.
UniProt P55212, 24-179 limits assumed: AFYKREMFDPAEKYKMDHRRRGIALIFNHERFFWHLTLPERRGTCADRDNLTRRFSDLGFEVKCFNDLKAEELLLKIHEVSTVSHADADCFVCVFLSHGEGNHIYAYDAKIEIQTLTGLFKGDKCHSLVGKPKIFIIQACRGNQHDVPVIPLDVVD
UniProt P55212, 194-293 limits assumed: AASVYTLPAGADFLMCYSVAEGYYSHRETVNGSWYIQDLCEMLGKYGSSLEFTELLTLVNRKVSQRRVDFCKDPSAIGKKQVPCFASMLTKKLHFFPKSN

Structures are written as SMILES. Only a part is listed here, and it is no random draw. Some tests of the compounds listed are not included; inactive here does not mean inactive elsewhere. Calls of active or inactive are those of the source.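 How the source made its calls: active means mean inhibition across replicates at least about 35%, with every replicate also reaching that limit (limit read from the data); inconclusive means only one of the two criteria met; inactive means neither criterion met.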

The target in the assay is Caspase-6 (Homo sapiens) (UniProt P55212). Description: inhibition of CASP6 peptide cleavage – biochemical, VEID-R110 fluorescence, single point, set 2, primary screen (AID 686996).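 Further: 0% = median of neutral control wells and 100% = no fluorescence left.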 As to conditions: purified caspase-6, Z-VEID-R110 cleavage fluorescence; at 12.5 µM; stronger effect = higher value.
Regarding `O=C(NCC1(N2CCCCC2)CCCCC1)c1cccc(Cl)c1`, the inhibition (as a rule, the change of the read-out against control, counted positive when it falls) was inactive: -1.63%.

As for `COc1cccc(C(=O)NCC2(N3CCCCC3)CCCCC2)c1`, the inhibition was inactive: 1.95%.

Turning to `COc1ccc(Cl)cc1C(=O)NCC1(N(C)C)CCCCC1`, the inhibition was inactive: -3.33%.

For the molecule `COc1cc(C(=O)NCC2(N(C)C)CCCCC2)c([N+](=O)[O-])cc1OC`, the inhibition is inactive: 0.108%.

On to `CN(C)C1(CNC(=O)c2ccc(Br)cc2)CCCCC1`, for which the inhibition was inactive: -2.61%.

In the case of `CC(C)Oc1ccc(C(=O)NCC2(N(C)C)CCCCC2)cc1`, the inhibition is inactive: -1.91%.

Take `O=C(OCCN1CCCC1)C(O)(c1ccccc1)c1ccccc1`: the inhibition is inactive: -0.39%.

`C=C(C)C#CC(O)(C(=O)OC1CCN(C)CC1)c1ccccc1` (stereo not given): the inhibition was inactive: -0.316%.

On to `COc1ccc(Br)c(C(=O)NCC2(N3CCCCC3)CCCCC2)c1`, for which the inhibition is inactive: -1.41%.

As for `Cc1ccc(C(=O)NCC2(N3CCCCC3)CCCCC2)cc1`, the inhibition is inactive: -3.75%.

As to `CCN(CC)CC(C)C(C)OC(=O)C(O)(c1ccccc1)c1ccccc1` (stereo not given), the inhibition was inactive: 2.48%.

On to `COc1cc(SC)ccc1C(=O)NCC1(N(C)C)CCCCC1`, for which the inhibition was inactive: -2.36%.

As for `CN1[C@@H]2CC[C@H]1CC(OC(=O)C(O)(c1ccccc1)c1ccccc1)C2` (stereo not given in full), the inhibition was inactive: -4.06%.

As for `O=C(NCC1(N2CCCCC2)CCCCC1)c1cc([N+](=O)[O-])ccc1Cl`, the inhibition is inactive: -0.079%.

Take `Cc1cc(C(=O)NCC2(N3CCCCC3)CCCCC2)ccc1[N+](=O)[O-]`: the inhibition is inactive: -0.117%.

As to `C=CCN1CCN(CCOC(=O)C(O)(c2ccccc2)c2ccccc2)CC1`, the inhibition is inactive: -0.766%.

Regarding `O=C(NCC1(N2CCCCC2)CCCCC1)c1cc(F)c(F)cc1Cl`, the inhibition was inactive: -0.14%.

Turning to `Cc1ccccc1C(=O)NCC1(N2CCCCC2)CCCCC1`, the inhibition was inactive: -1.97%.

`CN(C)C1CCCC1OC(=O)C(O)(c1ccccc1)c1ccccc1` (stereo not given): the inhibition is inactive: -2.33%.

Regarding `CN(C)c1ccc(C(=O)NCC2(N(C)C)CCCCC2)cc1`, the inhibition was inactive: -0.714%.
